Measured values from ChEMBL document CHEMBL1909046, “DrugMatrix in vitro pharmacology data”.

Amino acid sequences for entries named in this document (tags omitted). A change or cut given only in a name is not applied to a line headed by its entry. Residues count along the entry.
UniProt P43140: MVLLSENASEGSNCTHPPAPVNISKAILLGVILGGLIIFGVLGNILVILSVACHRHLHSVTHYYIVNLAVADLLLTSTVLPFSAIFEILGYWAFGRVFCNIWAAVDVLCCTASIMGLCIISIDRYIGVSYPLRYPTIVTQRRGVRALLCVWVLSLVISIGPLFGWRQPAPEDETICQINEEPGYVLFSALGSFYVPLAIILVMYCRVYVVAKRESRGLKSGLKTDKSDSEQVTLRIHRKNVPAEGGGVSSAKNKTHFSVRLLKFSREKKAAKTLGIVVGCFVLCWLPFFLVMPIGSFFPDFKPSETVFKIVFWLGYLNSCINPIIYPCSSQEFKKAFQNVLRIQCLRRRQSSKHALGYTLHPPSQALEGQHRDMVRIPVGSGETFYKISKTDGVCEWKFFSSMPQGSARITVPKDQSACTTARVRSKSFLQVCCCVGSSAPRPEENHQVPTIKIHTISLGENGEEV
UniProt Q9Y271: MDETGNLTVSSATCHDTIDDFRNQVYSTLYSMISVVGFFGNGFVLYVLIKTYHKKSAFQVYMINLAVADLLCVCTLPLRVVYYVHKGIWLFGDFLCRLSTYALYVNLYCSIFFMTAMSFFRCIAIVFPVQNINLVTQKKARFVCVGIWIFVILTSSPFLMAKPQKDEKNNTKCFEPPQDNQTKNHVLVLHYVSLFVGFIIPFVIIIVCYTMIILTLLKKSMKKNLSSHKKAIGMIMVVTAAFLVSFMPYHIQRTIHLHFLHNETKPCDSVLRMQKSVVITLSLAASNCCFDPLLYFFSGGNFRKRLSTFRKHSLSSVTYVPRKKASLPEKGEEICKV
UniProt Q99720, whole entry, looked up: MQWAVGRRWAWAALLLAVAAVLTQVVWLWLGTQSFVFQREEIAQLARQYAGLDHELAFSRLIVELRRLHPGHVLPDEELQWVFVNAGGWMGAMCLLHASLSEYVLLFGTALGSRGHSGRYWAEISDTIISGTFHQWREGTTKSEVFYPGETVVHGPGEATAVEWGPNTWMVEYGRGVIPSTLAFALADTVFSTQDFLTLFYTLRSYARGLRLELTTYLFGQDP
UniProt P25105: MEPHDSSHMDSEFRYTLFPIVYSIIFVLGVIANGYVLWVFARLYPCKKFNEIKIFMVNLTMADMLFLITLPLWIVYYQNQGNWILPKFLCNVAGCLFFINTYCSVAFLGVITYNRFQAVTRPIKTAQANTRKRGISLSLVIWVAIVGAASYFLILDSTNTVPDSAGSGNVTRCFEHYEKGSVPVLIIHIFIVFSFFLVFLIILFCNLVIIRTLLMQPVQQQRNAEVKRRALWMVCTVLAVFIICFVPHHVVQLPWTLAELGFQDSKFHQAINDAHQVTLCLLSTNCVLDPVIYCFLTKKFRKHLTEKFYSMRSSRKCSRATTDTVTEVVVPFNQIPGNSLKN
UniProt P08311, 21-244 limits assumed: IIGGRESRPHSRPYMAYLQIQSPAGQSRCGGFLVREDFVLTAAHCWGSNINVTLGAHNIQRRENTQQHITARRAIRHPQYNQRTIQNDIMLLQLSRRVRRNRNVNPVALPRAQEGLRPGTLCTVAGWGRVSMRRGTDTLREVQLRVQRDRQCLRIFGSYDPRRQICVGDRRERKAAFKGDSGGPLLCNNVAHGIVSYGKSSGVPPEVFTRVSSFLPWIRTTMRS
UniProt P29477: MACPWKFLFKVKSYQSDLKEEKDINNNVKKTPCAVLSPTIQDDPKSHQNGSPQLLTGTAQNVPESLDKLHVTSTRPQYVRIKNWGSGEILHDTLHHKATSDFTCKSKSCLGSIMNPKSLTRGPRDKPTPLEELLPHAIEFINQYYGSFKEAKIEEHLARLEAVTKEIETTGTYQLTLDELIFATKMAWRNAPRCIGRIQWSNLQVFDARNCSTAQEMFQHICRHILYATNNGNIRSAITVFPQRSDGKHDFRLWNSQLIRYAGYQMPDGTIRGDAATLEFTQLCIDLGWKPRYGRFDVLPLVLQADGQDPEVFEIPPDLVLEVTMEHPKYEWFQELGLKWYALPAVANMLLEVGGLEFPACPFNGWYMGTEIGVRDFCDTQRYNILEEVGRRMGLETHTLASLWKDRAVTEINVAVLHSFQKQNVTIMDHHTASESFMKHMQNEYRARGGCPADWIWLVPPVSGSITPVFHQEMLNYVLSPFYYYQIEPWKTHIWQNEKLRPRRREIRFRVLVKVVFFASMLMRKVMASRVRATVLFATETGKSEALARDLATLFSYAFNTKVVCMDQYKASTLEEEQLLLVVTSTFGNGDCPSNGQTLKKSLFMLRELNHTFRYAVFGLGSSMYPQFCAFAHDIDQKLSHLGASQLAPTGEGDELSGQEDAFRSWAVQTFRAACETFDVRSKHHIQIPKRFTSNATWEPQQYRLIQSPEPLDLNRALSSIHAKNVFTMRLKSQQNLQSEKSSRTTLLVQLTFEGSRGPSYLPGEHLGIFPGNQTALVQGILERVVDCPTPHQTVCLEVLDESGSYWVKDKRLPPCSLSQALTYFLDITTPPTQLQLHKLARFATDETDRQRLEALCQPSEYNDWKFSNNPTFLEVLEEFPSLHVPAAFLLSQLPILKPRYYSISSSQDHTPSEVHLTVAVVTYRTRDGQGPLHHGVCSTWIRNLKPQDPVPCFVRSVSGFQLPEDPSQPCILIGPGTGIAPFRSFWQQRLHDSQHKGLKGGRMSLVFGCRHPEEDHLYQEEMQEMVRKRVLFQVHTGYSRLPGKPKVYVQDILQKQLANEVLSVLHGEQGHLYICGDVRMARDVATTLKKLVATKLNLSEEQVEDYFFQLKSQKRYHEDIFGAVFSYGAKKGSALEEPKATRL
UniProt P37288, whole entry, looked up: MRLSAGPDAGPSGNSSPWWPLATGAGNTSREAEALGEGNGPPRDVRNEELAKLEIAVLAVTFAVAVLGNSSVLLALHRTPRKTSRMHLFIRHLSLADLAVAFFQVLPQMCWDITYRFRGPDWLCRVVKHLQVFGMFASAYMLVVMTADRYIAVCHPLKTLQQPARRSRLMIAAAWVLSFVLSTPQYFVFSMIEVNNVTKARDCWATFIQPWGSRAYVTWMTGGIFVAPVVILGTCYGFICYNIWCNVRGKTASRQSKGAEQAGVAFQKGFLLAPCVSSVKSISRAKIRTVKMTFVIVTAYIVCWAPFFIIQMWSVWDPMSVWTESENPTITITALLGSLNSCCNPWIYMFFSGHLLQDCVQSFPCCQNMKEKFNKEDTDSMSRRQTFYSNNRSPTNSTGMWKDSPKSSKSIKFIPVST
UniProt P28335, 33-458 limits assumed: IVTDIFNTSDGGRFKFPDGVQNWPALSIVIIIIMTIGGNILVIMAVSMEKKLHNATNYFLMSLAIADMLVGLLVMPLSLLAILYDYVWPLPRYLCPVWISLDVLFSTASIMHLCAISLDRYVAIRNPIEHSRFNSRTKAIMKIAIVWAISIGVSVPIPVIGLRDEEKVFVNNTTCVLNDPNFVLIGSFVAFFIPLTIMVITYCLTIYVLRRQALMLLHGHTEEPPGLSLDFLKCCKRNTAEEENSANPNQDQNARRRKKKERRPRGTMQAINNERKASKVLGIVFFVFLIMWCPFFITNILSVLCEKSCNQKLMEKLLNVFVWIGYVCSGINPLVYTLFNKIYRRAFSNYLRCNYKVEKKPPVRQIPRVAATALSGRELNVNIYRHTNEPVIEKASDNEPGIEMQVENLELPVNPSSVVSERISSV
UniProt P35462, whole entry, looked up: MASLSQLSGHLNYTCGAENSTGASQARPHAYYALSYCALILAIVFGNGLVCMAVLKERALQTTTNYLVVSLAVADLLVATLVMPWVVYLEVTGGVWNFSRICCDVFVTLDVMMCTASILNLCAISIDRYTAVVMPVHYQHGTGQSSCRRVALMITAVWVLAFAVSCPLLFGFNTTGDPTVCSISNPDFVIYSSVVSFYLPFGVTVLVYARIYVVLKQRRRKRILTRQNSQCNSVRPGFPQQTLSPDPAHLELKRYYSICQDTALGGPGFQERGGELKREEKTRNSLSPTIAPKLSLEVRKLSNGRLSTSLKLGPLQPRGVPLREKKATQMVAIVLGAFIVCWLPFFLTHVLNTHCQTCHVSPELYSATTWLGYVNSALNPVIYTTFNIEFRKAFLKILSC
UniProt P21397, whole entry, looked up: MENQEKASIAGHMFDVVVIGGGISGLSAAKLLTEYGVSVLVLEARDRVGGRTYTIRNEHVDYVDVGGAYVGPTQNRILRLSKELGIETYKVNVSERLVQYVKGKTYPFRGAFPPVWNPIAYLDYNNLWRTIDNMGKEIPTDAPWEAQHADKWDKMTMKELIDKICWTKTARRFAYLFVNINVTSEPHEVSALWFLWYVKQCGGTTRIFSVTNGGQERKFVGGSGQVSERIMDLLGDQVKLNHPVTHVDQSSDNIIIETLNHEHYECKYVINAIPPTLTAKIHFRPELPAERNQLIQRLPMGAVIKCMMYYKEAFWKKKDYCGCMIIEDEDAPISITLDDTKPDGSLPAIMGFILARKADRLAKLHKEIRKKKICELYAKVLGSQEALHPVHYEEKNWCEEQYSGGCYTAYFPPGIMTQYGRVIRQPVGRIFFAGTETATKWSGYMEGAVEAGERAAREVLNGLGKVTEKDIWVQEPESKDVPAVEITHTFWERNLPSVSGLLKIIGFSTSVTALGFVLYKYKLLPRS
UniProt P28482, 2-360 limits assumed: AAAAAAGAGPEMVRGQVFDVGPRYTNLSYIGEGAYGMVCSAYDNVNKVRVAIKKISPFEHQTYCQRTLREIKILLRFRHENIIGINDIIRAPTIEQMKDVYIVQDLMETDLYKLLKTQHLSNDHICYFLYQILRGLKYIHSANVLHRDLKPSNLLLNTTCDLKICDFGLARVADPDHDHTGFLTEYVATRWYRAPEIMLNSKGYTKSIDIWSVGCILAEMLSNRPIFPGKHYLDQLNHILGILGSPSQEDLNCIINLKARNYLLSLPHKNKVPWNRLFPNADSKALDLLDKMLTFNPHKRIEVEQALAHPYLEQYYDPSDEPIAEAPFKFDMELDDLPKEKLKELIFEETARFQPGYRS
UniProt P12822, 34-1310 limits assumed: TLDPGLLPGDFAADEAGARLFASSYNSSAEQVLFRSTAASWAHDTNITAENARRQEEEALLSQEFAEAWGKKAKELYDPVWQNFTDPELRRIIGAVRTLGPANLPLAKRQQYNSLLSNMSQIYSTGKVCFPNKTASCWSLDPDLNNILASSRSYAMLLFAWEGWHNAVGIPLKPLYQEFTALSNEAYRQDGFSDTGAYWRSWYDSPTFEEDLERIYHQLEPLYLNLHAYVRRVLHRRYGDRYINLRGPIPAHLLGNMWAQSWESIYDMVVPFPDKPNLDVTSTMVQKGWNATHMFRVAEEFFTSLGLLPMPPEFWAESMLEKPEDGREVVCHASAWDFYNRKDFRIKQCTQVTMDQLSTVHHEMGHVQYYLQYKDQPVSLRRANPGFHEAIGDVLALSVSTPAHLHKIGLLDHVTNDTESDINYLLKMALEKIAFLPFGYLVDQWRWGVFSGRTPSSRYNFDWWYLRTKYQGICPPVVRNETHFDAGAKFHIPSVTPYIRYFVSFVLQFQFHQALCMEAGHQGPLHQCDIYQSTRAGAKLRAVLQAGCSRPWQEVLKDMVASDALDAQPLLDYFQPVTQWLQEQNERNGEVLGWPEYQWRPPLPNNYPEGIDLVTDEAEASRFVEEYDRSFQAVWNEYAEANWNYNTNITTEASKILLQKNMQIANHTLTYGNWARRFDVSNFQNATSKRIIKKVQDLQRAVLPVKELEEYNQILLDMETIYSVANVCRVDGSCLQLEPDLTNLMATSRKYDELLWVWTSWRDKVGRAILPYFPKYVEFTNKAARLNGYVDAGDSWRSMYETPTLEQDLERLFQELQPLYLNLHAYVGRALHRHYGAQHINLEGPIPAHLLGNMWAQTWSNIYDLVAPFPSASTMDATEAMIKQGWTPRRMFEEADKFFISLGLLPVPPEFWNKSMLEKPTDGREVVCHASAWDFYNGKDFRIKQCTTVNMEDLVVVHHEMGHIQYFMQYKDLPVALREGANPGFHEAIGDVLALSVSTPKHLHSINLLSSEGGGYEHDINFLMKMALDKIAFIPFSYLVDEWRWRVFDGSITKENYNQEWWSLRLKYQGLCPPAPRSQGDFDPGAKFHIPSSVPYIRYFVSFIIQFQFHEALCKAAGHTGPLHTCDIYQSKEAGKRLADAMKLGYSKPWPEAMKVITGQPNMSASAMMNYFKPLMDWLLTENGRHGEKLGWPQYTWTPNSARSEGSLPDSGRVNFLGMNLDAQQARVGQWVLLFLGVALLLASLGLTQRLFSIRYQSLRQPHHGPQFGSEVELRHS
UniProt P41143, whole entry, looked up: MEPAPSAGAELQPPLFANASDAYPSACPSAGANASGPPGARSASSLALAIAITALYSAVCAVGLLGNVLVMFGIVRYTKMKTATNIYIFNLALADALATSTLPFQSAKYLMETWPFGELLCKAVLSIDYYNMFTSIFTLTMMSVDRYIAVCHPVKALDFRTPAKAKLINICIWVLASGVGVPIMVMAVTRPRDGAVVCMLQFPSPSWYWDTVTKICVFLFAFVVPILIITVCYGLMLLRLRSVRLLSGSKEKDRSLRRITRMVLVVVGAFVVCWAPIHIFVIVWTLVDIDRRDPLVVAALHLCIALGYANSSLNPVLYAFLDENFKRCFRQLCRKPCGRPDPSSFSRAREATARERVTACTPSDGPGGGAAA

What was measured:
[1] = biological target: Alpha-1A adrenergic receptor (Rattus norvegicus, UniProt P43140); conditions: strain Wistar, Submaxillary gland
[2] = biological target: Matrix metalloproteinase-9 (Homo sapiens, UniProt P14780); experiment: DRUGMATRIX: Protease, Matrix Metalloprotease-9 (MMP-9) enzyme inhibition (substrate: Mca-Pro-Leu-Gly-Leu-Dpa-Ala-Arg-NH2)
[3] = biological target: Alpha-2C adrenergic receptor (Homo sapiens, UniProt P18825); conditions: sf9
[4] = biological target: Cysteinyl leukotriene receptor 1 (Homo sapiens, UniProt Q9Y271); experiment: DRUGMATRIX: Cysteinyl leukotriene receptor 1 radioligand binding (ligand: [3H]LTD4); conditions: cho-k1
[5] = biological target: Sigma non-opioid intracellular receptor 1 (Homo sapiens, UniProt Q99720); conditions: jurkat
[6] = biological target: Platelet-activating factor receptor (Homo sapiens, UniProt P25105); experiment: DRUGMATRIX: Platelet Activating Factor (PAF) radioligand binding (ligand: [3H] PAF)
[7] = biological target: Cathepsin G (Homo sapiens, UniProt P08311); experiment: DRUGMATRIX: Protease, Cathepsin G enzyme inhibition (substrate: Suc-Ala-Ala-Pro-Phe-AMC); conditions: neutrophil
[8] = biological target: Nitric oxide synthase, inducible (Mus musculus, UniProt P29477); experiment: DRUGMATRIX: Nitric Oxide Synthase, Inducible (iNOS) enzyme inhibition (substrate: L-Arginine)
[9] = biological target: Vasopressin V1a receptor (Homo sapiens, UniProt P37288); conditions: hek293
[10] = biological target: Epidermal growth factor receptor (Homo sapiens, UniProt P00533); experiment: DRUGMATRIX: Protein Tyrosine Kinase, EGF Receptor enzyme inhibition (substrate: Poly(Glu:Tyr)); conditions: insect cells
[11] = biological target: Beta-1 adrenergic receptor (Homo sapiens, UniProt P08588); conditions: cho-k1
[12] = biological target: 5-hydroxytryptamine receptor 2C (Homo sapiens, UniProt P28335); experiment: DRUGMATRIX: Serotonin (5-Hydroxytryptamine) 5-HT2C radioligand binding (ligand: [3H] Mesulergine); conditions: cho-k1
[13] = biological target: D(3) dopamine receptor (Homo sapiens, UniProt P35462); experiment: DRUGMATRIX: Dopamine D3 radioligand binding (ligand: [3H] Spiperone); conditions: cho
[14] = biological target: Protein phosphatase 3 catalytic subunit alpha (Homo sapiens, UniProt Q08209); experiment: DRUGMATRIX: Protein Serine/Threonine Phosphatase, PPP3CA (Calcineurin, PP2B) enzyme inhibition (substrate: DiFMUP)
[15] = biological target: Amine oxidase [flavin-containing] A (Homo sapiens, UniProt P21397); experiment: DRUGMATRIX: Monoamine Oxidase MAO-A enzyme inhibition (substrate: Kynuramine); conditions: bti-tn-5b1-4
[16] = biological target: Mitogen-activated protein kinase 1 (Homo sapiens, UniProt P28482); experiment: DRUGMATRIX: Protein Serine/Threonine Kinase, ERK2 enzyme inhibition (substrate: Myelin Basic Protein)
[17] = biological target: Angiotensin-converting enzyme (Oryctolagus cuniculus, UniProt P12822); experiment: DRUGMATRIX: Peptidase, Angiotensin Converting Enzyme enzyme inhibition (substrate: FAPGG); conditions: Lung
[18] = biological target: Delta-type opioid receptor (Homo sapiens, UniProt P41143); experiment: DRUGMATRIX: Opiate delta1 (OP1, DOP) radioligand binding (ligand: [3H] Naltrindole); conditions: hek293
[19] = biological target: Androgen receptor (Rattus norvegicus, UniProt P15207)

CN(C(=O)Cc1ccc(Cl)c(Cl)c1)C1CCC2(CCCO2)CC1N1CCCC1 (stereo not drawn)
Not Active: IC50 [1] | Ki [1] | IC50 [2] | Ki [2] | IC50 [3] | Ki [3] | IC50 [4] | Ki [4] | IC50 [5] | Ki [5] | IC50 [6] | Ki [6] | IC50 [7] | Ki [7] | IC50 [8] | Ki [8] | IC50 [9] | Ki [9] | IC50 [10] | Ki [10] | IC50 [11] | Ki [11] | IC50 [12] | Ki [12] | IC50 [13] | Ki [13] | IC50 [14] | Ki [14] | IC50 [15] | Ki [15] | IC50 [16] | Ki [16] | IC50 [17] | Ki [17] | IC50 [18] | Ki [18] | IC50 [19] | Ki [19]
